Test results as given in patent US7217794B2, “Compounds and methods for treatment of thrombosis” (Daiamed, Inc., priority 2003, dated 2007).

Chains of the proteins cited; added tags and fusions are not shown. Residues count along the entry.
UniProt P00742, 235-488 limits assumed: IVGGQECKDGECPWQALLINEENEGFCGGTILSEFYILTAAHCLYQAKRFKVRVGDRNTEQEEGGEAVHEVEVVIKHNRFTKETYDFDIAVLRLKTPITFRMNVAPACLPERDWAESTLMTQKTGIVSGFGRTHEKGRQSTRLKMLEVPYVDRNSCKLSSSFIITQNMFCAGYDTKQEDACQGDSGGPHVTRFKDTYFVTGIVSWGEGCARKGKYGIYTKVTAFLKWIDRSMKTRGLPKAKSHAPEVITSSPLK
UniProt P00742, 41-179 partner limits assumed: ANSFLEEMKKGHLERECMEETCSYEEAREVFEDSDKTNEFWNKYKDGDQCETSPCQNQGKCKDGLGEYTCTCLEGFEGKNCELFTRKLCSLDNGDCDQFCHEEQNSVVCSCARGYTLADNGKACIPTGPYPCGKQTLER
UniProt P03951, 388-625 limits assumed: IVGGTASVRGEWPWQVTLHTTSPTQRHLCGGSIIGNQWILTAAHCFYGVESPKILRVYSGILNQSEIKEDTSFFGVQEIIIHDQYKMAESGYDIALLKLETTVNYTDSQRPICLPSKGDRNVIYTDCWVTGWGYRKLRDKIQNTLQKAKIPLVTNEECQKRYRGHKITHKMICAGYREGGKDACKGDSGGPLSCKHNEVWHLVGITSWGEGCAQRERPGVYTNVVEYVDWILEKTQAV
UniProt P03951, 19-387 partner limits assumed: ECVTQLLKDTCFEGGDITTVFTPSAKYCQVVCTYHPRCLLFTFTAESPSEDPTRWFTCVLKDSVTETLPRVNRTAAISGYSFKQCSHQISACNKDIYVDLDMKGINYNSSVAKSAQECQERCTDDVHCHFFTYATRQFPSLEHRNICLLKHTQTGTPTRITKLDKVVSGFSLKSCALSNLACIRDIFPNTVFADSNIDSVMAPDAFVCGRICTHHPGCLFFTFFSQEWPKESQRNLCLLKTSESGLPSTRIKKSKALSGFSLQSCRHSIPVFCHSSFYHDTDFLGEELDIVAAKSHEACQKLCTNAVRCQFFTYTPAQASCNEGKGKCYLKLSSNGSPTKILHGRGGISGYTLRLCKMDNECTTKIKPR

How the values were obtained:
Factor Xa = Factor Xa (Homo sapiens, UniProt P00742); assay: Factor Xa enzyme inhibition assay (purified enzyme); conditions: read-out: FXa IC50
native Factor XIa = native Factor XIa (Homo sapiens, UniProt P03951); assay: Factor XIa enzyme inhibition assay (fluorogenic substrate pyroGlu-Pro-Arg-AMC); format: biochemical; conditions: read-out: FXIa IC50
thrombin = thrombin (Homo sapiens, UniProt P00734); assay: Thrombin enzyme inhibition assay (purified enzyme); conditions: read-out: thrombin IC50
[1] = Table 14, compounds of formula II
[2] = Table 13, pyrimidinone compounds of formula I
[3] = Table 14, tested form: trifluoroacetate

Row | Compound | pIC50 (Factor Xa; Table 14) | pIC50 (native Factor XIa; [1]) | pIC50 (thrombin; Table 14) | also measured
1 | CC(C)Nc1cnc(-c2ccc3ccccc3c2)n(CC(=O)N[C@@H](CCCNC(=N)N)C(=O)c2nccs2)c1=O | – | – | – | pIC50 (Factor Xa; Table 13): 6.41; pIC50 (native Factor XIa; [2]): 5.99; pIC50 (thrombin; Table 13): 4.85
2 | COC(=O)c1cc(NC(=O)c2cccc(O)c2C)c2cc(C(=N)N)ccc2c1 | 5.58 | 6.95 | 5.13 | –
3 | Cc1cccc(-c2ncc(NCc3ccccc3)c(=O)n2CC(=O)N[C@@H](CCCNC(=N)N)C(=O)c2nccs2)c1 | – | – | – | pIC50 (Factor Xa; Table 13): 6.33; pIC50 (native Factor XIa; [2]): 6.21; pIC50 (thrombin; Table 13): 7.19
4 | N=C(N)c1ccc2cccc(NC(=O)c3cccc(S(=O)(=O)OCCCO)c3)c2c1 | 4.39 | 6.22 | 3.79 | –
5 | Cc1c(O)cccc1C(=O)Nc1cc(C(=O)NCc2ccccc2)cc2ccc(C(=N)N)cc12 | – | – | – | pIC50 (Factor Xa; [3]): 5.92; pIC50 (native Factor XIa; Table 14, compounds of formula II, tested form: trifluoroacetate): 7.12; pIC50 (thrombin; [3]): 4.51

The next lines start with results.

Row | pIC50 (Factor Xa; Table 14) | pIC50 (native Factor XIa; [1]) | pIC50 (thrombin; Table 14) | Compound | also measured
6 | 5.10 | 6.24 | 4.79 | Cc1c(O)cccc1C(=O)Nc1cc(C(=O)NCC(C)C)cc2ccc(C(=N)N)cc12 | –
7 | 5.49 | 6.15 | 4.23 | Cc1c(O)cccc1C(=O)Nc1cccc2ccc(C(=N)N)cc12 | –

pIC50: −log10 of the molar value. Like-named read-outs stand apart in the source and are kept apart here.
